The chains behind the UniProt entries cited, without tags or fusion partners.
UniProt P14416, whole entry: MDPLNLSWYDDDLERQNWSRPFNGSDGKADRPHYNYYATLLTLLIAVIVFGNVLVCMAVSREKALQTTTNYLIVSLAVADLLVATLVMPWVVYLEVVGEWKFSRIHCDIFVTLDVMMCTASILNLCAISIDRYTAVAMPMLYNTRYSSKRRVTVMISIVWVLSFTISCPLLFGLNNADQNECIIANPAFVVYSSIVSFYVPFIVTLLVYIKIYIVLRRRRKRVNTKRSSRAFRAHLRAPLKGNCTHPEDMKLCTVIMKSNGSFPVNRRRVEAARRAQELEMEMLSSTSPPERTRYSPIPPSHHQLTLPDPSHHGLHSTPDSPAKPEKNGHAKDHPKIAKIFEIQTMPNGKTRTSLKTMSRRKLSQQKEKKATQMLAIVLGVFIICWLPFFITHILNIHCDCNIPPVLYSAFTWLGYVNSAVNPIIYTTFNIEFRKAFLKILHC

The entries are a selection whose mix differs from that of the whole data set. Calls of active or inactive are those of the source. Cut-off read from the data, not from the text of the source: active = potentiation above about 50%; inconclusive = mostly about 30% to 49%; inactive = weaker than that.
What follows are compounds tested against D(2) dopamine receptor (Homo sapiens) (UniProt P14416) (assay: Beta-Arrestin HTS for Positive Allosteric Modulators of the Human D2 Dopamine Receptor: Potentiators). Conditions: DiscoveRx D2 beta-arrestin cells, luminescence, 90 min; active compounds read high; 100% = 57 uM dopamine signal.
From the text: There is great interest in identifying small molecule ligands for G-protein coupled receptors (GPCRs) as nearly 50% of all FDA-approved drugs target these important receptor proteins. […] Amongst the dopamine receptors (DARs), the D2 is arguably one of the most validated drug targets in neurology and psychiatry. For instance, all receptor-based antiparkinsonian drugs primarily work via stimulating the D2 DAR, whereas all FDA-approved antipsychotic agents are antagonists of this receptor. The D2 DAR is also therapeutically targeted in other disorders such as restless legs syndrome, tardive dyskinesia, Tourette's syndrome, and hyperprolactinemia.
To this end, a miniaturized qHTS screen was developed to be screened against the Molecular Libraries Small Molecule Repository (MLSMR). This assay seeks to identify potentiators against the D2 DAR.
NIH Molecular Libraries Probe Production Network [MLPCN]
NIH Chemical Genomics Center [NCGC]
PI Name: David Sibley, National Institutes of Neurological Disorders and Stroke
DiscoveRx D2 cells were thawed from frozen stock and seeded at 2,100 cells/ 3 uL/well media (DiscoveRx Plating Reagent 2) with MultiDrop Combi dispenser (Thermo Scientific, Logan, UT) onto white tissue culture treated 1536-well Aurora plates (Brooks Automation, Chelmsford, MA) and allowed to attach overnight at 37 deg C, 5% CO2. Next, 23 nL/well of compound solutions in DMSO were added with a pintool transfer (Kalypsis, San Diego, CA). As the positive control, 1 uL/well dopamine (EC100, 57 uM final concentration) diluted in buffer (HBSS + 10 mM HEPES + SMB + 0.1 %Tween-20) was dispensed to 1 column of each plate. EC20 (Dopamine at 50 nM final concentration) was dispensed to the rest of the plate except columns 1 &2 which were used as negative control (EC=0, buffer only), 1 uL/well as well. The cells were stimulated by compounds and dopamine for 90 minutes at 37 deg C, 5% CO2, after which 1.5 uL/well of DiscoveRx detection reagent was added with BioRAPTR FRD dispenser. The detection reagent was prepared by mixing of Galacton Star Substrate, Emerald II solution and PathHunter buffer (supplied by the assay kit) together at 1:5:19 proportion accordingly just prior to dispensing. The plates were incubated at ambient temperature for 1 hour and then the luminescent signal was read on ViewLux plate reader (PerkinElmer, Waltham, MA).
COc1cc(C(=O)NCC2(N3CCOCC3)CCCCC2)cc(OC)c1C was tested, and the potentiation was inactive: -34.3%. For CCCCn1nnnc1C(c1ccccc1)N1CCC(n2c(=O)[nH]c3ccccc32)CC1 (centres undefined), the potentiation was inactive: 10.5%. For O=C(NCC1(N2CCOCC2)CCCCC1)c1cc(Br)ccc1Cl, the potentiation was inactive: 1.88%. For O=c1[nH]c2ccccc2n1C1CCN(C(c2cccs2)c2nnnn2C2CCCCC2)CC1 (centres undefined), the potentiation was inactive: 8.49%. In the case of O=c1[nH]c2ccccc2n1C1CCN(C(c2ccnc3ccccc23)c2nnnn2C2CCCC2)CC1 (centres undefined), the potentiation is reported as inactive: -3.43%. With COc1ccc(C(=O)NCC2(N3CCOCC3)CCCCC2)cc1OC the potentiation was inactive: -3.29%. CCOC(=O)N1CCC(Nc2ccc(C)cc2)CC1 was tested, and the potentiation was inactive: 12.4%. In the case of COc1cccc(C(c2nnnn2C(C)(C)C)N2CCC(n3c(=O)[nH]c4ccccc43)CC2)c1OC (centres undefined), the potentiation is reported as inactive: -3.7%. For N/C(=N\O)c1c(N)no[n+]1[O-], the potentiation was inactive: -8.36%. In the case of O=c1[nH]c2ccccc2n1C1CCN(C(c2cccs2)c2nnnn2C2CCCC2)CC1 (centres undefined), the potentiation is reported as inactive: 2.61%. O=C(O)c1cccc(Nc2c([N+](=O)[O-])cc([N+](=O)[O-])cc2[N+](=O)[O-])c1 was tested, and the potentiation was inactive: -18.4%. CCc1cc(C(=O)NCC2(N3CCCCC3)CCCCC2)sc1C was tested, and the potentiation was inactive: -35.4%. O=C(OC1CN2CCC1CC2)C1c2ccccc2C=Cc2ccccc21 (centres undefined) was tested, and the potentiation was inactive: -9.32%. In the case of CCCCn1nnnc1C(c1cccc(OC)c1OC)N1CCC(n2c(=O)[nH]c3ccccc32)CC1 (centres undefined), the potentiation is reported as inactive: 10.3%. N#Cc1ccc(C(=O)NCC2(N3CCCCC3)CCCCC2)cc1 was tested, and the potentiation was inactive: 0.568%. With CC(C)(C)OC(=O)N1CCC(N(C(=O)c2ccccc2)c2ccc(Cl)cc2)CC1 the potentiation was inactive: -6.92%. In the case of CCOC(=O)C(CC)C1=NC(C)(C)Cc2ccccc21.O=[N+]([O-])c1cc([N+](=O)[O-])c(O)c([N+](=O)[O-])c1 (centres undefined), the potentiation is reported as inactive: -15.4%. CN(C)C1(CNC(=O)c2cccc(C#N)c2)CCCCC1 was tested, and the potentiation was inactive: -1.87%. Cc1cc(N(CCCl)CCCl)ccc1C=O was tested, and the potentiation was inactive: -6.45%. O=c1[nH]c2ccccc2n1C1CCN(C(c2ccccc2)c2nnnn2C2CCCC2)CC1 (centres undefined) was tested, and the potentiation was inactive: -15%. In the case of CCCN1CCC(Nc2cc(OC)cc(OC)c2)CC1, the potentiation is reported as inactive: -7.72%. For c1ccc(CN2CCC(Nc3ccccc3)CC2)cc1, the potentiation was inactive: -30.6%. In the case of CC(C)(C)n1nnnc1C(c1cccc2ccccc12)N1CCC(n2c(=O)[nH]c3ccccc32)CC1 (centres undefined), the potentiation is reported as inactive: 1.05%. In the case of CCC(c1nnnn1C1CCCCC1)N1CCC(n2c(=O)[nH]c3ccccc32)CC1 (centres undefined), the potentiation is reported as inactive: -5.52%.
